System: C57BL/6 mice
Experiment: Locomotor activity in open field, alone and against U50,488
Assay type: in vivo
Settings: 1 hour, FIG. 2

## CN(C(=O)Cc1ccc(Cl)c(Cl)c1)[C@@H]1CCCC[C@H]1N1CCCC1
  suppression of locomotor (ambulatory) activity compared to vehicle: does
